From ChEMBL document CHEMBL5053531, “Development of BromoTag: A "Bump-and-Hole"-PROTAC System to Induce Potent, Rapid, and Selective Degradation of Tagged Target Proteins” (J Med Chem, 2021)
Calls of active or inactive are those of the source. The rule behind the calls is not given here.

By UniProt entry, the sequences of proteins in these tests, tags left out.
von Hippel-Lindau disease tumor suppressor/Bromodomain-containing protein 4 (Homo sapiens), O60885+P40337, UniProt P40337, whole entry, looked up: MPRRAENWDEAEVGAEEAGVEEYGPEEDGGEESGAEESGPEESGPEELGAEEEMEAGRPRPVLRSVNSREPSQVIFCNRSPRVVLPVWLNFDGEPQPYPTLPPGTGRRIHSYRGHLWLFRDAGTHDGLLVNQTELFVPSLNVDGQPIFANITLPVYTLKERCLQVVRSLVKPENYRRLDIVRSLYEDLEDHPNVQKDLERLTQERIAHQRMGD

What was measured:
[1] = test system: von Hippel-Lindau disease tumor suppressor/Bromodomain-containing protein 4 (Homo sapiens), O60885+P40337 [L387A]; assay: Bump and hole PROTAC activity at BromoTag-Brd4 BD2 L387A mutant/VHL-bound E3 ligase in HEK293 cells assessed as Brd2 degradation measured in presence of MLN4924 after 6 hrs by Western blot analysis; assay type: cell-based
[2] = test system: von Hippel-Lindau disease tumor suppressor/Bromodomain-containing protein 4 (Homo sapiens), O60885+P40337 [L387A]; assay: Bump and hole PROTAC activity at BromoTag-Brd4 BD2 L387A mutant/VHL-bound E3 ligase in HEK293 cells assessed as Brd2 degradation measured in presence of VH298 after 6 hrs by Western blot analysis; assay type: cell-based

**Q.** Which results are given for `CC[C@@H](C(=O)OCCOCCOCCOCC(=O)N[C@H](C(=O)N1C[C@H](O)C[C@H]1C(=O)NCc1ccc(-c2scnc2C)cc1)C(C)(C)C)[C@@H]1N=C(c2ccc(Cl)cc2)c2c(sc(C)c2C)-n2c(C)nnc21`?
**A.** inhibition [1]: Active; inhibition [2]: Active
